From PubChem BioAssay AID2023 (NMMLSC, 2009)
This is a selection; strong and weak results do not stand in their true shares. Some salts or complexes appear as unconnected parts, following the source record. Activity calls are given as the source filed them.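 The calls were made as follows: active = GFP response vs DMSO above a set limit, about the screen mean plus 3 SD (cut at about 150% in these data); inconclusive = under 70 cell events counted for the yeast strain; inactive = the rest.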

Assay: TOR pathway LAP4-GFP level changes – S. cerevisiae, multiplex flow cytometry, MLPCN library, primary screen (AID 2023)
Settings: 3 h, at 10 µM, active compounds read high, median GFP as percent of DMSO wells

SMILES | GFP response vs DMSO
CCN(CC)CCCOC(=O)C(O)(c1ccccc1)c1ccccc1 | inactive: 98.4%
COc1ccccc1OP(C)(=O)Nc1cc(Cl)ccc1C (centres undefined) | inactive: 109%
COc1ccc(OP(C)(=O)Nc2cccc(F)c2)cc1 (centres undefined) | inactive: 97.5%
Cc1cc(C)cc(OP(C)(N)=O)c1 (centres undefined) | inactive: 94.7%
CCOC(=O)c1ccc(NP(C)(=O)Oc2ccccc2)cc1 (centres undefined) | inactive: 94.6%
COc1ccccc1OP(C)(=O)Nc1ccc(C)cc1 (centres undefined) | inactive: 88.1%
CC(C)(C)c1ccc(OP(C)(=O)Nc2ccc(SC(F)(F)F)cc2)cc1 (centres undefined) | inactive: 88.6%
Cc1cccc(C)c1OP(C)(N)=O (centres undefined) | inactive: 103%
O=[N+]([O-])c1ccc2c(c1)C=Nc1ccccc1O2 | inactive: 121%
O=[N+]([O-])c1cc([N+](=O)[O-])c(Nc2cccnc2)c([N+](=O)[O-])c1 | inactive: 113%
COc1ccccc1OP(C)(=O)Nc1ccccc1 (centres undefined) | inactive: 98.4%
CP(=O)(Nc1ccccc1Br)Oc1ccccc1 (centres undefined) | inactive: 90.2%
CP(=S)(Nn1cnnc1)Oc1ccccc1 (centres undefined) | inactive: 104%
CP(=O)(Nc1ccccn1)Oc1ccc(Cl)cc1 (centres undefined) | inactive: 90.8%
CCOP(C)(=S)SCC(=O)NC(C)C(=O)O (centres undefined) | inactive: 102%
CCOC(=O)c1ccc(NP(C)(=O)Oc2ccc(OC)cc2)cc1 (centres undefined) | inactive: 84.9%
O=[N+]([O-])c1cc([N+](=O)[O-])c(O)c([N+](=O)[O-])c1.c1ccc(Oc2ccncc2)cc1 | inactive: 108%
CCc1ccc(OP(C)(=O)N2CCN(c3ccc([N+](=O)[O-])cc3)CC2)cc1 (centres undefined) | inactive: 118%
CP(=O)(NC(=O)Nc1ccccc1)Oc1ccccc1 (centres undefined) | inactive: 98.9%
Cc1cc(C)cc(OP(C)(=O)Nc2ccc(SC(F)(F)F)cc2)c1 (centres undefined) | inactive: 101%
Cc1cccc(C)c1OP(C)(=O)Nc1ccc(SC(F)(F)F)cc1 (centres undefined) | inactive: 87.3%
CP(=O)(Nc1ccc(SC(F)(F)F)cc1)Oc1ccc(Cl)cc1 (centres undefined) | inactive: 111%

SMILES | GFP response vs DMSO
CP(=O)(Oc1ccccc1)OC(c1ccccc1)C(F)(F)F (centres undefined) | inactive: 96.7%
Cc1nc2ccc3ccccc3c2s1.O=[N+]([O-])c1cc([N+](=O)[O-])c(O)c([N+](=O)[O-])c1 | inactive: 97.7%
O=[N+]([O-])c1cc([N+](=O)[O-])c(-c2cnn(-c3ccccc3)c2)c([N+](=O)[O-])c1 | inactive: 126%
O=[N+]([O-])c1cc([N+](=O)[O-])c(-n2nnc3ccccc32)c([N+](=O)[O-])c1 | inactive: 102%
CP(=O)(Nc1ccc(SC(F)(F)F)cc1)Oc1ccccc1 (centres undefined) | inactive: 93.4%
CCCOc1ccc(NP(C)(=O)Oc2ccc(Cl)cc2)cc1 (centres undefined) | inactive: 105%
COc1ccccc1OP(C)(=O)Nc1c(C)cccc1C (centres undefined) | inactive: 98.8%
CN1CCCCC1COC(=O)C1(O)c2ccccc2CCc2ccccc21 (centres undefined) | inactive: 83.5%
O=[N+]([O-])c1cc([N+](=O)[O-])c(Nc2nnnn2CCO)c([N+](=O)[O-])c1 | inactive: 84.2%
CC1=C2N=C(C=C3N=C(C(C)=C4[N-][C@@](C)([C@@H]5N=C1[C@](C)(CCC(=O)NC[C@@H](C)OP(=O)([O-])O[C@H]1[C@@H](O)[C@@H](n6cnc7cc(C)c(C)cc76)O[C@@H]1CO)[C@H]5CC(N)=O)[C@@](C)(CC(N)=O)[C@@H]4CCC(N)=O)[C@@](C)(CC(N)=O)[C@@H]3CCC(N)=O)C(C)(C)[C@@H]2CCC(N)=O.[C-]#N.[Co+3] | inactive: 104%
CCOC(=O)C(CC)C1=NC(C)(C)Cc2ccccc21.O=[N+]([O-])c1cc([N+](=O)[O-])c(O)c([N+](=O)[O-])c1 (centres undefined) | inactive: 107%
CC1=NCCc2c1[nH]c1ccccc21.O=[N+]([O-])c1cc([N+](=O)[O-])c(O)c([N+](=O)[O-])c1 | inactive: 116%
O=C(O)c1cccc(Nc2c([N+](=O)[O-])cc([N+](=O)[O-])cc2[N+](=O)[O-])c1 | inactive: 112%
CP(=O)(Nc1cccc(Br)c1)Oc1ccccc1 (centres undefined) | inactive: 116%
Cc1cc(C)cc(OP(C)(=O)Nc2ccccn2)c1 (centres undefined) | inactive: 94.3%
Cc1ccc(C)c(NP(C)(=O)Oc2ccccc2)c1 (centres undefined) | inactive: 100%
Cc1cc(C)cc(OP(C)(=O)Nc2ccc(C)cc2C)c1 (centres undefined) | inactive: 92.8%
CCOC(=O)c1ccc(NP(C)(=O)Oc2cc(C)cc(C)c2)cc1 (centres undefined) | inactive: 101%
COc1ccccc1OP(C)(=O)Nc1cccc(Br)c1 (centres undefined) | inactive: 109%
COc1ccc2c(c1O)-c1c(O)c(OC)cc3c1[C@H](C2)[N+](C)(C)CC3.O=[N+]([O-])c1cc([N+](=O)[O-])c([O-])c([N+](=O)[O-])c1[O-] | inactive: 109%
O=C(OCCN1CCN(CCOCc2ccccc2)CC1)C(O)(c1ccccc1)c1ccccc1 | inactive: 93%
O=C(OC1CN2CCC1CC2)c1ccc([N+](=O)[O-])cc1 (centres undefined) | inactive: 106%
